## Curated experimental data: melting point values

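OPERA's authors assembled the values from existing databases and did not measure them anew. The files give a single number for a compound and property, which may rest on several reports. How each value was measured is not recorded, so precision varies. The measured form (salt, isomer or mixture) is not always the one drawn. Unmarked limits or estimates from the upstream databases cannot be ruled out.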

Melting points are in °C. "via" names the databases from which the curators took the value.

CCNc1ccc(C(=O)O)cc1[N+](=O)[O-] [N-Ethyl-3-nitro PABA] is reported with MP 240 °C (via OCHEM).
O=C(O)c1sccc1-c1ccccc1 [3-phenylthiophene-2-carboxylic Acid] is reported with MP 207 °C (via OCHEM).
CC(C)CC(C(=O)O)N1C(=O)C2CC=CCC2C1=O (configuration not stated) is reported with MP 136 °C (via OCHEM).
CCCCCCCC/C=C\CCCCCCCC(=O)N[C@@H](CO)[C@H](O)[C@H](O)CCCCCCCCCCCCCC [Ceramide 3B] is reported with MP 101 °C (via eChemPortal).
CCCCC(CC)CCc1ccc2ccccc2c1N=Nc1ccc(N=Nc2ccccc2C)cc1C (configuration not stated) is reported with MP -13 °C (via eChemPortal).
Cc1ccc(C)c(S(=O)(=O)NN)c1 [2,5-dimethylbenzenesulfonohydrazide] is reported with MP 76 °C (via OCHEM).
CC(C)(C)OC(=O)Nc1ccc(CC(=O)O)cc1 [{4-[(tert-Butoxycarbonyl)amino]phenyl}acetic acid] is reported with MP 154 °C (via OCHEM).
NC(=S)COc1ccc(F)cc1 [2-(4-fluorophenoxy)ethanethioamide] is reported with MP 121 °C (via OCHEM).
NC(=O)Cc1csc(N)n1 [2-(2-amino-1,3-thiazol-4-yl)acetamide] is reported with MP 162 °C (via OCHEM).
COc1cc(N)ccc1N [1,4-Benzenediamine, 2-methoxy-] is reported with MP 107 °C (via PubChem).
O=C(O)CCCNS(=O)(=O)c1ccc2c(c1)OCCO2 is reported with MP 121 °C (via OCHEM).
O=C(CCl)NC(=O)NC1CCCCC1 [2-chloro-N-(cyclohexylcarbamoyl)acetamide] is reported with MP 104 °C (via OCHEM).
O=C(O)c1cc2c(s1)CCCCC2 is reported with MP 164 °C (via OCHEM).
CC(O)(c1ccccc1)c1ccccn1.Cl (configuration not stated) [1-Phenyl-1-(pyridin-2-yl)ethanol hydrochloride] is reported with MP 193 °C (via eChemPortal).
c1ccc2c(c1)ccc1c2ccc2ccc3ccccc3c21 [Benzo[c]chrysene] is reported with MP 125.4 °C (via PubChem).
Nc1ccccc1OCC(F)(F)F [2-(2,2,2-trifluoroethoxy)aniline] is reported with MP 50 °C (via OCHEM).
CCCCCCOCCCCCC [Hexane, 1,1'-oxybis-] is reported with MP -44.5 °C (via OCHEM, eChemPortal).
CC(C)c1nc(=S)[nH][nH]1 [5-Isopropyl-4H-[1,2,4]triazole-3-thiol] is reported with MP 157 °C (via OCHEM).
CC(C)(C)c1cc(N)n(-c2ccc(F)cc2)n1 [3-tert-butyl-1-(4-fluorophenyl)-1H-pyrazol-5-amine] is reported with MP 99 °C (via OCHEM).
CCOc1ccc(-c2nnc(N)o2)cc1 [5-(4-Ethoxy-phenyl)-[1,3,4]oxadiazol-2-ylamine] is reported with MP 239 °C (via OCHEM).
Cc1cccc2[nH]c(C(=O)O)cc12 [4-Methyl-1H-indole-2-carboxylic acid] is reported with MP 217 °C (via OCHEM).
Cc1ccc(S(=O)(=O)C(C)(C)C(=O)c2ccc(Sc3ccc(C(=O)c4ccccc4)cc3)cc2)cc1 is reported with MP 115.3 °C (via eChemPortal).
NCc1nnc2ccccn12 [1-([1,2,4]Triazolo[4,3-a]pyridin-3-yl)methanamine] is reported with MP 132 °C (via OCHEM).
O=C(O)CCc1n[nH]c(=S)[nH]c1=O is reported with MP 163 °C (via OCHEM).
CCOC(=O)c1sc2ncnc(Cl)c2c1C [ethyl 4-chloro-5-methylthieno[2,3-d]pyrimidine-6-carboxylate] is reported with MP 114 °C (via OCHEM).
Cc1ccc(-c2nc(N)sc2C)cc1 [5-methyl-4-(4-methylphenyl)-1,3-thiazol-2-amine] is reported with MP 174 °C (via OCHEM).
O=C(O)CNS(=O)(=O)c1cccc(C(F)(F)F)c1 [({[3-(trifluoromethyl)phenyl]sulfonyl}amino)acetic acid] is reported with MP 81 °C (via OCHEM).
O=Cc1cc2c(cc1[N+](=O)[O-])OCCO2 [7-nitro-2,3-dihydro-1,4-benzodioxine-6-carbaldehyde] is reported with MP 170 °C (via OCHEM).
COc1ccc(S(=O)(=O)Cl)cc1F [3-fluoro-4-methoxybenzenesulfonyl chloride] is reported with MP 78.5 °C (via OCHEM).
COc1cc2nc(Cl)nc(N)c2cc1OC [4-Amino-2-chloro-6,7-dimethoxyquinazoline] is reported with MP 276.2 °C (via eChemPortal).
NNC(=O)Cc1nc2ccccc2[nH]1 [2-(1H-Benzimidazol-2-yl)acetohydrazide] is reported with MP 179 °C (via OCHEM).
O=C(O)c1ccccc1N1CCCC1=O [2-(2-oxopyrrolidin-1-yl)benzoic Acid] is reported with MP 198 °C (via OCHEM).
Cc1cccc(Oc2ccc(Cl)cc2N)c1 [5-chloro-2-(3-methylphenoxy)aniline] is reported with MP 95 °C (via OCHEM).
O=C(O)c1c[nH]c(=O)[nH]1 [2-oxo-2,3-dihydro-1H-imidazole-4-carboxylic acid] is reported with MP 234 °C (via OCHEM).
COc1cc(NC(C)=O)c(C(=O)O)cc1OC [2-Acetamido-4,5-dimethoxybenzoic acid] is reported with MP 230 °C (via OCHEM).
Cc1nc(-c2ccc(F)cc2)sc1C(=O)O [2-(4-Fluorophenyl)-4-methyl-1,3-thiazole-5-carboxylic acid] is reported with MP 252 °C (via OCHEM).
O=C(O)CCOc1ccc(Br)cc1 [3-(4-bromophenoxy)propanoic acid] is reported with MP 146 °C (via OCHEM).
O=C1C=CC(=O)N1c1cccc2ccccc12 [1-(Naphthalen-1-yl)-1H-pyrrole-2,5-dione] is reported with MP 104 °C (via OCHEM).
CC(=O)CC(=O)Nc1ccccc1F [n-(2-fluorophenyl)-3-oxobutanamide] is reported with MP 76 °C (via OCHEM).
O=C(OCCc1ccccc1)c1ccccc1 [2-Phenylethyl benzoate] is reported with MP -8.57 °C (via eChemPortal).
COc1ccc(N)cc1NC(=O)OC(C)(C)C [tert-Butyl (5-amino-2-methoxyphenyl)carbamate] is reported with MP 109 °C (via OCHEM).
O=Cc1ccc(-c2ccc(C(=O)O)cc2)o1 [4-(5-Formyl-2-furyl)benzoic acid] is reported with MP 314 °C (via OCHEM).
Oc1ccccc1CNC1CCCCC1 [2-Cyclohexylaminomethyl-phenol] is reported with MP 62 °C (via OCHEM).
Cc1cc(N)n(C2CCS(=O)(=O)C2)n1 (configuration not stated) is reported with MP 216 °C (via OCHEM).
Cc1nn(-c2cccc(Cl)c2)nc1C(=O)O is reported with MP 203 °C (via OCHEM).
NNc1cc(Cl)ncn1 [4-Chloro-6-hydrazinopyrimidine] is reported with MP 152 °C (via OCHEM).
COc1ccccc1Nc1ccc(N)cc1 [N~1~-(2-Methoxyphenyl)benzene-1,4-diamine] is reported with MP 74 °C (via OCHEM).
O=C(O)c1cccc2c3c([nH]c12)CCCC3 [2,3,4,9-tetrahydro-1H-carbazole-8-carboxylic acid] is reported with MP 191 °C (via OCHEM).
Cc1cc(OC(C)C(=O)O)ccc1Cl (configuration not stated) [2-(4-Chloro-3-methylphenoxy)propanoic acid] is reported with MP 88 °C (via OCHEM).
COc1ccc2cc(C(=O)O)[nH]c2c1 [6-Methoxyindole-2-carboxylic acid] is reported with MP 191 °C (via OCHEM).
Clc1cncc(OCc2ccccc2)n1 [2-(benzyloxy)-6-chloropyrazine] is reported with MP 48 °C (via OCHEM).
C[Si](C)(CCC(F)(F)C(F)(F)C(F)(F)C(F)(F)C(F)(F)C(F)(F)C(F)(F)C(F)(F)F)O[Si](C)(C)CCC(F)(F)C(F)(F)C(F)(F)C(F)(F)C(F)(F)C(F)(F)C(F)(F)C(F)(F)F is reported with MP -2.5 °C (via ChemicalBook).
CCC1(CC)NC(=O)N(CC(=O)O)C1=O [(4,4-diethyl-2,5-dioxoimidazolidin-1-yl)acetic acid] is reported with MP 171 °C (via OCHEM).
CC(C)COC(=O)CC(C(=O)OCC(C)C)S(=O)(=O)[O-].[Na+] (configuration not stated) [Sodium 1,4-diisobutyl sulfosuccinate] is reported with MP 200 °C (via eChemPortal).
CCCC1(CCC)NC(=O)NC1=O [5,5-dipropyl-imidazolidine-2,4-dione] is reported with MP 206 °C (via OCHEM).

Repeated from above, the 7 entries with the highest MP:

For O=Cc1ccc(-c2ccc(C(=O)O)cc2)o1 [4-(5-Formyl-2-furyl)benzoic acid] the data give MP 314 °C (via OCHEM).
For COc1cc2nc(Cl)nc(N)c2cc1OC [4-Amino-2-chloro-6,7-dimethoxyquinazoline] the data give MP 276.2 °C (via eChemPortal).
For Cc1nc(-c2ccc(F)cc2)sc1C(=O)O [2-(4-Fluorophenyl)-4-methyl-1,3-thiazole-5-carboxylic acid] the data give MP 252 °C (via OCHEM).
For CCNc1ccc(C(=O)O)cc1[N+](=O)[O-] [N-Ethyl-3-nitro PABA] the data give MP 240 °C (via OCHEM).
For CCOc1ccc(-c2nnc(N)o2)cc1 [5-(4-Ethoxy-phenyl)-[1,3,4]oxadiazol-2-ylamine] the data give MP 239 °C (via OCHEM).
For O=C(O)c1c[nH]c(=O)[nH]1 [2-oxo-2,3-dihydro-1H-imidazole-4-carboxylic acid] the data give MP 234 °C (via OCHEM).
For COc1cc(NC(C)=O)c(C(=O)O)cc1OC [2-Acetamido-4,5-dimethoxybenzoic acid] the data give MP 230 °C (via OCHEM).

Values as listed in the OPERA 2.9 repository of K. Mansouri.